{"source": "paper PMC10797628", "key": {"Y5.38A 5-HT1D receptor": {"target": "Y5.38A 5-HT1D receptor (Homo sapiens, UniProt P28221, Y197A)", "assay": "Radioligand binding, Y5.38A 5-HT1D", "settings": "read-out: KD (nM) 5-HT1D Y5.38A; saturation binding"}, "V45.52I 5-HT1B receptor": {"target": "V45.52I 5-HT1B receptor (Homo sapiens, UniProt P28222, V201I)", "assay": "Radioligand binding, V45.52I 5-HT1B", "settings": "read-out: KD (nM) 5-HT1B V45.52I; saturation binding"}, "V3.33I 5-HT1A receptor": {"target": "V3.33I 5-HT1A receptor (Homo sapiens, UniProt P08908, V117I)", "assay": "Radioligand binding, V3.33I 5-HT1A", "settings": "read-out: KD (nM) 5-HT1A V3.33I; saturation binding"}, "S5.42A 5-HT1D receptor": {"target": "S5.42A 5-HT1D receptor (Homo sapiens, UniProt P28221, S201A)", "assay": "Radioligand binding, S5.42A 5-HT1D", "settings": "read-out: KD (nM) 5-HT1D S5.42A; saturation binding"}, "Y5.38F 5-HT1D receptor": {"target": "Y5.38F 5-HT1D receptor (Homo sapiens, UniProt P28221, Y197F)", "assay": "Radioligand binding, Y5.38F 5-HT1D", "settings": "read-out: KD (nM) 5-HT1D Y5.38F; saturation binding"}, "S5.42A 5-HT1B receptor": {"target": "S5.42A 5-HT1B receptor (Homo sapiens, UniProt P28222, S212A)", "assay": "Radioligand binding, S5.42A 5-HT1B", "settings": "read-out: KD (nM) 5-HT1B S5.42A; saturation binding"}, "human 5-HT1B receptor": {"target": "human 5-HT1B receptor (Homo sapiens, UniProt P28222)", "assay": "Radioligand binding (saturation and competition), WT 5-HT1B", "settings": "read-out: KD of radioligand at 5-HT1B WT; saturation binding"}, "T7.39N 5-HT1B receptor": {"target": "T7.39N 5-HT1B receptor (Homo sapiens, UniProt P28222, T355N)", "assay": "Radioligand binding, T7.39N 5-HT1B", "settings": "read-out: KD (nM) 5-HT1B T7.39N; saturation binding"}, "Y5.38A 5-HT1A receptor": {"target": "Y5.38A 5-HT1A receptor (Homo sapiens, UniProt P08908, Y195A)", "assay": "Radioligand binding, Y5.38A 5-HT1A", "settings": "read-out: KD (nM) 5-HT1A Y5.38A; saturation binding"}, "V45.52I 5-HT1D receptor": {"target": "V45.52I 5-HT1D receptor (Homo sapiens, UniProt P28221, V190I)", "assay": "Radioligand binding, V45.52I 5-HT1D", "settings": "read-out: KD (nM) 5-HT1D V45.52I; saturation binding"}, "N7.39T 5-HT1A receptor": {"target": "N7.39T 5-HT1A receptor (Homo sapiens, UniProt P08908, N386T)", "assay": "Radioligand binding, N7.39T 5-HT1A", "settings": "read-out: KD (nM) 5-HT1A N7.39T; saturation binding"}, "S5.42A 5-HT1A receptor": {"target": "S5.42A 5-HT1A receptor (Homo sapiens, UniProt P08908, S199A)", "assay": "Radioligand binding, S5.42A 5-HT1A", "settings": "read-out: KD (nM) 5-HT1A S5.42A; saturation binding"}, "Y5.38F 5-HT1A receptor": {"target": "Y5.38F 5-HT1A receptor (Homo sapiens, UniProt P08908, Y195F)", "assay": "Radioligand binding, Y5.38F 5-HT1A", "settings": "read-out: KD (nM) 5-HT1A Y5.38F; saturation binding"}, "T7.39N 5-HT1D receptor": {"target": "T7.39N 5-HT1D receptor (Homo sapiens, UniProt P28221, T342N)", "assay": "Radioligand binding, T7.39N 5-HT1D", "settings": "read-out: KD (nM) 5-HT1D T7.39N; saturation binding"}}}
{"substance": "[^3H]5-CT [reference compound]", "values": [{"measurement": "Kd", "setting": "Y5.38A 5-HT1D receptor", "value": "6.2 ± 0.02", "unit": "nM"}, {"measurement": "Kd", "setting": "V45.52I 5-HT1B receptor", "value": "5.9 ± 0.4", "unit": "nM"}, {"measurement": "Kd", "setting": "V3.33I 5-HT1A receptor", "value": "2.5 ± 0.3", "unit": "nM"}, {"measurement": "Kd", "setting": "S5.42A 5-HT1D receptor", "value": "7.6 ± 0.2", "unit": "nM"}, {"measurement": "Kd", "setting": "Y5.38F 5-HT1D receptor", "value": "3.3 ± 0.2", "unit": "nM"}, {"measurement": "Kd", "setting": "S5.42A 5-HT1B receptor", "value": "11.8 ± 0.6", "unit": "nM"}, {"measurement": "Kd", "setting": "human 5-HT1B receptor", "value": "5.3 ± 0.5", "unit": "nM"}, {"measurement": "Kd", "setting": "T7.39N 5-HT1B receptor", "value": "5.6 ± 0.3", "unit": "nM"}, {"measurement": "Kd", "setting": "Y5.38A 5-HT1A receptor", "value": "6 ± 0.1", "unit": "nM"}, {"measurement": "Kd", "setting": "V45.52I 5-HT1D receptor", "value": "0.95 ± 0.02", "unit": "nM"}, {"measurement": "Kd", "setting": "N7.39T 5-HT1A receptor", "value": "2.7 ± 0.1", "unit": "nM"}, {"measurement": "Kd", "setting": "S5.42A 5-HT1A receptor", "value": "13.2 ± 0.1", "unit": "nM"}, {"measurement": "Kd", "setting": "Y5.38F 5-HT1A receptor", "value": "5.5 ± 0.2", "unit": "nM"}, {"measurement": "Kd", "setting": "T7.39N 5-HT1D receptor", "value": "0.87 ± 0.2", "unit": "nM"}]}
